SMILES strings stand for the structures. Where only a bound is given, the exact number is not on record here.

Protein sequences, listed by entry. Tags and fused reporters are not part of them.
UniProt Q7Z2W7, whole entry: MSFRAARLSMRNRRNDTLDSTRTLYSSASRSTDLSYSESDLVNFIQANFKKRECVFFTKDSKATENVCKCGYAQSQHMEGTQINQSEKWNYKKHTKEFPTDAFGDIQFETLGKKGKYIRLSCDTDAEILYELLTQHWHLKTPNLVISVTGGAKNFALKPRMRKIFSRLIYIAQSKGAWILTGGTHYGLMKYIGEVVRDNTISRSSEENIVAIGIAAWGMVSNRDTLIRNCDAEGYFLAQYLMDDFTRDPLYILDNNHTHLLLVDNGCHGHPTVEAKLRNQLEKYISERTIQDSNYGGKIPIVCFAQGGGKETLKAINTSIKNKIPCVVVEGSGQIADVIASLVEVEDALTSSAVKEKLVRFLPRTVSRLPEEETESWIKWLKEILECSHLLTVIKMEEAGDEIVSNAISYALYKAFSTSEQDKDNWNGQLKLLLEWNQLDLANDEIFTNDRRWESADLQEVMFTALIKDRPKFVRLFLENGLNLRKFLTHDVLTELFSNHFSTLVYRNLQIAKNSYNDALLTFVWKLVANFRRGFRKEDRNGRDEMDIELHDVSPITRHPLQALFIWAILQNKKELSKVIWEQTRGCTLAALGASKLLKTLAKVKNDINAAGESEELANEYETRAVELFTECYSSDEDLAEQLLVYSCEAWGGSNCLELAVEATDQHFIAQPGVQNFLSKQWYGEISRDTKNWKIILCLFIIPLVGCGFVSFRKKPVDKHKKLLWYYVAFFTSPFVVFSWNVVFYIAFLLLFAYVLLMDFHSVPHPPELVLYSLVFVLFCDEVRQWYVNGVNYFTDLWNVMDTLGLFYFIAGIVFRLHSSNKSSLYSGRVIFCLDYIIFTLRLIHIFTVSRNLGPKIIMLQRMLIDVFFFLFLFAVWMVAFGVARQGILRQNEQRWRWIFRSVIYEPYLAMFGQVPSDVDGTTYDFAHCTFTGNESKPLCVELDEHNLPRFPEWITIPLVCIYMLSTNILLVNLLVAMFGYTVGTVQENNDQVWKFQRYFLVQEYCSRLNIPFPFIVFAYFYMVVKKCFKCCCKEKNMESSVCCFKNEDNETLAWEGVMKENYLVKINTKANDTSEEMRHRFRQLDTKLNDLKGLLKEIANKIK
UniProt Q7Z2W7, whole entry I746A: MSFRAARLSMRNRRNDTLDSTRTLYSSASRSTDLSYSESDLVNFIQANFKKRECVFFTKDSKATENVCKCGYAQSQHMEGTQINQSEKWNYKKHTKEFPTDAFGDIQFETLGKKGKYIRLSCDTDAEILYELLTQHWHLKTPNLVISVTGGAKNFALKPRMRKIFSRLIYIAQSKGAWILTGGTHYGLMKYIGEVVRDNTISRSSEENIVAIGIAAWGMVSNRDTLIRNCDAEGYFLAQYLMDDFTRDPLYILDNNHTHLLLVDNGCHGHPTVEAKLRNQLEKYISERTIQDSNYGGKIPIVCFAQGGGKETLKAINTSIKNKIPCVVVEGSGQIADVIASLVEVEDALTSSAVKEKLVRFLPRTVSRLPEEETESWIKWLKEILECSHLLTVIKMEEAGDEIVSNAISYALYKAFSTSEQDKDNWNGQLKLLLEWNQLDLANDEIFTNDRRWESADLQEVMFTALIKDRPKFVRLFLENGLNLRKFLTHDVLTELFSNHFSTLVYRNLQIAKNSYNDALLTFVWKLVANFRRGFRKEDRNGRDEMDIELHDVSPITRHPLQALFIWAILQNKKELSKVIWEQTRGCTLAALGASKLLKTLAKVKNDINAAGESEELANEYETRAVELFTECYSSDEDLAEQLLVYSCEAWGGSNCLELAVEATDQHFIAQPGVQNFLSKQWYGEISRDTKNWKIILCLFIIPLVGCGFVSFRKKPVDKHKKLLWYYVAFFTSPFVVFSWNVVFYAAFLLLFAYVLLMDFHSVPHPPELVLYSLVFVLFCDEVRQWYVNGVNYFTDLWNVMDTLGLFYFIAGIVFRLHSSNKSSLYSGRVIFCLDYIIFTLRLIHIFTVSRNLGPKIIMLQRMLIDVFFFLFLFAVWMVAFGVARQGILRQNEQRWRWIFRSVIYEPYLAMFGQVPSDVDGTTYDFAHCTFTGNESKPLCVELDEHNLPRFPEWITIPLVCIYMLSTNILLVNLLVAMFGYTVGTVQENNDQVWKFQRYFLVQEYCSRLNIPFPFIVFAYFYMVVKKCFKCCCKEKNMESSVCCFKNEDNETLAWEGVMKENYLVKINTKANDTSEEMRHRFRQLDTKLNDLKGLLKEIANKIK
UniProt Q7Z2W7, whole entry D802A: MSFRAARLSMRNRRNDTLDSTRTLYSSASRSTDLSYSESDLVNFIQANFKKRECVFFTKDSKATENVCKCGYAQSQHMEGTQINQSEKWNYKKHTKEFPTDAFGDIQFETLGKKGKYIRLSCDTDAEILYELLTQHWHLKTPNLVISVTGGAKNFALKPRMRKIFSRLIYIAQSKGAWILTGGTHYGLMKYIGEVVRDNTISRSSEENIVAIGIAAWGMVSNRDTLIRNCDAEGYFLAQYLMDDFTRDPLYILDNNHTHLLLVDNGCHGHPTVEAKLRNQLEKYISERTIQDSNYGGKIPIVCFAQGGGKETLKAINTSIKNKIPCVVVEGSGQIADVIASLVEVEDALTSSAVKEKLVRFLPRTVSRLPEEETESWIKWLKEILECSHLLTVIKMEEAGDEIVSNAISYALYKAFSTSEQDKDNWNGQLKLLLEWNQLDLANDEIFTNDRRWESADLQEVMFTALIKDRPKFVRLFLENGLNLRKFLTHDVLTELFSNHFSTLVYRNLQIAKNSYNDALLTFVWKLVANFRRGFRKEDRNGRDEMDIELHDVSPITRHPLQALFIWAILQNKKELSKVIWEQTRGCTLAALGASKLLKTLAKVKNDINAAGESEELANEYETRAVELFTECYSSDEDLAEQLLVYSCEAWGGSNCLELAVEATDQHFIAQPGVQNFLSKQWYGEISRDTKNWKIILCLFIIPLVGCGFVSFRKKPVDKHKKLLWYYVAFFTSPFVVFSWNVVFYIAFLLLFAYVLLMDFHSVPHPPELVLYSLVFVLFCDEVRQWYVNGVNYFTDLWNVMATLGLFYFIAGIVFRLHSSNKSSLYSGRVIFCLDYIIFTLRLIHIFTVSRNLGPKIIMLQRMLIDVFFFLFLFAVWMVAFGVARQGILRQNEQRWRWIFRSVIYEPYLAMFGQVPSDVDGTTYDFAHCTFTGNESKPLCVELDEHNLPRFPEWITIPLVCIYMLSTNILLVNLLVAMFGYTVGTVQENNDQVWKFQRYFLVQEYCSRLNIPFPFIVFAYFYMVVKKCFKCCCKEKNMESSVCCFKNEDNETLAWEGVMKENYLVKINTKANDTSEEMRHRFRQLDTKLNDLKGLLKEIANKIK
UniProt Q7Z2W7, whole entry N799A: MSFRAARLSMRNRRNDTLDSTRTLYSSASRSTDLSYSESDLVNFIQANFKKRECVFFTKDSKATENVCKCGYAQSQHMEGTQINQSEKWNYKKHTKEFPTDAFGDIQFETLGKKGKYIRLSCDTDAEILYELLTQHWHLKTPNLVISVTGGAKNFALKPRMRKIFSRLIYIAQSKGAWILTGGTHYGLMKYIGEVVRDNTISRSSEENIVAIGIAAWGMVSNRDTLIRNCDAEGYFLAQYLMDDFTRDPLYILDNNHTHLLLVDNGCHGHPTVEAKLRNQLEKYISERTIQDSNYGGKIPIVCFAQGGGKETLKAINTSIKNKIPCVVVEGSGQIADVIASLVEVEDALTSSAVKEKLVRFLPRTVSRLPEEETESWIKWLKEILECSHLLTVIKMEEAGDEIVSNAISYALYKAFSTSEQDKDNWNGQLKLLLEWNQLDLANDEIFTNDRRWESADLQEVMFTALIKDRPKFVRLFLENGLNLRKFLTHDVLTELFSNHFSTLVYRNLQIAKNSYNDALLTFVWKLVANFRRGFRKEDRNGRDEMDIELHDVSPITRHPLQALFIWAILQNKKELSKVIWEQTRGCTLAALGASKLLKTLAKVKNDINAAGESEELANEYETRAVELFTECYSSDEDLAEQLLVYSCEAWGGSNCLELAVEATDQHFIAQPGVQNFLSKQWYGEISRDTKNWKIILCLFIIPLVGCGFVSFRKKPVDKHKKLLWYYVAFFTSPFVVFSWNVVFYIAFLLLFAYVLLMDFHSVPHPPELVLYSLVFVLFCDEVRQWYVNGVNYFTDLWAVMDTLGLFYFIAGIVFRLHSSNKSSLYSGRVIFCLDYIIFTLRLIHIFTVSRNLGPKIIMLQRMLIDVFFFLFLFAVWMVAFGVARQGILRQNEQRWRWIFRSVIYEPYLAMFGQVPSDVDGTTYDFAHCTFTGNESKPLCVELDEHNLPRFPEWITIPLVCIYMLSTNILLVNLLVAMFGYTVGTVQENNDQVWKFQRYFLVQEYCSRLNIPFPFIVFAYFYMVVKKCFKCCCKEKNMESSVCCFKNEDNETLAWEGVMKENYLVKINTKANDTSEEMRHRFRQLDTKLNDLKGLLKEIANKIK

What all share (type): cell-based
Assay [1] concerns the target T1, Transient receptor potential cation channel subfamily M member 8 (Homo sapiens, UniProt Q7Z2W7). Nature of the assay: Inhibition of human TRPM8 expressed in HEK293 cells assessed as reduction in ethyl 4-methoxy-2-phenylthiazole-5-carboxylate induced Ca2+ efflux preincubated for 5 mins followed by ethyl 4-methoxy-2-phenylthiazole-5-carboxylate addition and measured for 3 mins by FLIPR assay.

In assay [2] the target is T1, Transient receptor potential cation channel subfamily M member 8. Nature of the assay: Inhibition of human TRPM8 expressed in HEK293 cells assessed as reduction in cold stimulated Ca2+ efflux preincubated for 5 mins followed by cold stimulation and measured for 3 mins.
The target in assay [3] is T2, Transient receptor potential cation channel subfamily M member 8 (Homo sapiens, UniProt Q7Z2W7, I746A). The experiment in a line: Inhibition of human TRPM8 I746A mutant expressed in HEK293 cells assessed as reduction in ethyl 4-methoxy-2-phenylthiazole-5-carboxylate induced Ca2+ efflux.
In assay [4] the target is T1, Transient receptor potential cation channel subfamily M member 8. The experiment in a line: Inhibition of human TRPM8 expressed in HEK293 cells assessed as reduction in icilin induced Ca2+ efflux preincubated for 5 mins followed by icilin addition and measured for 3 mins by FLIPR assay.
Assay [5] concerns the target Transient receptor potential cation channel subfamily M member 8 (Homo sapiens, UniProt Q7Z2W7, D802A). The experiment in a line: Inhibition of human TRPM8 D802A mutant expressed in HEK293 cells assessed as reduction in ethyl 4-methoxy-2-phenylthiazole-5-carboxylate induced Ca2+ efflux.
For assay [6], the target named is T1, Transient receptor potential cation channel subfamily M member 8. The experiment in a line: Inhibition of human TRPM8 expressed in HEK293 cells assessed as decrease in outward currents by patch clamp electrophysiology method.
Assay [7] has the same target. The experiment in a line: Inhibition of wild type human TRPM8 expressed in HEK293 cells assessed as reduction in ethyl 4-methoxy-2-phenylthiazole-5-carboxylate induced Ca2+ efflux.
Assay [8] has as its target T2, Transient receptor potential cation channel subfamily M member 8. Nature of the assay: Inhibition of human TRPM8 I746A mutant expressed in HEK293 cells assessed as reduction in icilin induced Ca2+ efflux.
Assay [9] concerns the target Transient receptor potential cation channel subfamily M member 8 (Homo sapiens, UniProt Q7Z2W7, N799A). Nature of the assay: Inhibition of human TRPM8 N799A mutant expressed in HEK293 cells assessed as reduction in ethyl 4-methoxy-2-phenylthiazole-5-carboxylate induced Ca2+ efflux.
The target of assay [10] is T1, Transient receptor potential cation channel subfamily M member 8. The experiment in a line: Inhibition of wild type human TRPM8 expressed in HEK293 cells assessed as reduction in icilin induced Ca2+ efflux.

As for `CCn1nnc(-c2sc(-c3cccc(F)c3)nc2O)n1`, the IC50 in assay [1] is 18 nM; in [2], 21.4 nM; in assay [3], 50 nM; in [4] it was 24 nM; in assay [5] it was more than 30000 nM; in [6], 36 nM. Further, the IC50 in [7] was found to be 75 nM; in [8], 60 nM; in assay [9], 250 nM; in assay [10], 76 nM.
